Experimental findings from article PMC6692079 (Journal of medicinal chemistry, 2018) are described below.

The chains behind the UniProt entries cited, without tags or fusion partners. Where a name states a change or a piece, a line headed by the entry shows the natural chain unless it says otherwise.
UniProt P41145: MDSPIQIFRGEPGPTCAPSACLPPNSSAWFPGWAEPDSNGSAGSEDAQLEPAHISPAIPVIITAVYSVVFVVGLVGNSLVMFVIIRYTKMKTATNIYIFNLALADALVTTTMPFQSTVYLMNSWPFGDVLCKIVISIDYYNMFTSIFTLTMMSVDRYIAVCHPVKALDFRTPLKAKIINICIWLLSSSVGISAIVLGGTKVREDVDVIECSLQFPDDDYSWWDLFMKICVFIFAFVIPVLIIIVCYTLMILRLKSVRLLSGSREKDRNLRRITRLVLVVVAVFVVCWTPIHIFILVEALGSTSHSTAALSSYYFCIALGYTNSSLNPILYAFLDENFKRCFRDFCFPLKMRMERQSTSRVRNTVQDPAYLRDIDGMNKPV
UniProt P35372, whole entry: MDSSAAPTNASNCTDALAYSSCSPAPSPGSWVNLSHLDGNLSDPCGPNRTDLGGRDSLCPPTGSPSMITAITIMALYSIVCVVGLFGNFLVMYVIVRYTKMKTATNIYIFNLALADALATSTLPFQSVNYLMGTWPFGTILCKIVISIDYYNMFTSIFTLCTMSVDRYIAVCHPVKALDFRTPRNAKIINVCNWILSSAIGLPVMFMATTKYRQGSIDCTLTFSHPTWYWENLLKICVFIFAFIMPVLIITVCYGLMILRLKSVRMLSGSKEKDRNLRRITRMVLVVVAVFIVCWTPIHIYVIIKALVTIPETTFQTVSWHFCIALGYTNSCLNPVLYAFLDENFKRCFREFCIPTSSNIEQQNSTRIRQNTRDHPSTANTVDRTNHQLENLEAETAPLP

Structures can show the parent of a compound that is named as a salt.

Assay in all cases: biochemical
Assay [1] addresses human κ opioid receptor (Homo sapiens, UniProt P41145). It counts as biochemical. The note with it: for δ/κ / μ/κ: ratio of Ke values; for δ/κ: selectivity for κ relative to δ; for μ/κ: selectivity for κ relative to μ.
Assay [2] deals with human δ opioid receptor (Homo sapiens, UniProt P41143).
Assay [3] addresses human μ opioid receptor (Homo sapiens, UniProt P35372). It counts as biochemical.

In the case of `CC(C)[C@@H](CN1CCC(C(F)F)CC1)NC(=O)[C@H]1Cc2ccc(O)cc2CN1` [Compound 21, (3R)-N-[(1S)-1-{[4-(Difluoromethyl)piperidin-1-yl]methyl}−2-methylpropyl]-7-hydroxy-1,2,3,4-tetrahydroisoquinoline-3-carbox-amide Dihydrochloride], the δ/κ in assay [1] is on record as above 870. This compound displayed a Kb in assay [2] above 3 µM.

With `CC1=CCCN(C[C@@H](NC(=O)[C@H]2Cc3ccc(O)cc3CN2)C(C)C)C1` [Compound 29, (3R)-7-Hydroxy-N-{(1S)-2-methyl-1-[(5-methyl-3,6-dihydropyridin-1(2H)-yl)methyl]propyl}−1,2,3,4-tetrahydroisoquinoline-3-carboxamide Dihydrochloride], the δ/κ in assay [1] is on record as above 318. This compound gave a Kb in assay [2] above 3 µM.

Regarding `O=C(NCCN1CCCCC1)[C@H]1Cc2ccc(O)cc2CN1` [Compound 34, (3R)-7-Hydroxy-N-(2-piperidin-1-ylethyl)-1,2,3,4-tetrahydroisoquinoline-3-carboxamide Dihydrochloride], in assay [1], the “fold less potent at the κ opioid receptor than 1” value is given as 16.6, the δ/κ is recorded as above 27 and the μ/κ was above 27. This compound showed a Kb in assay [3] above 3 µM. Besides, the Kb in assay [2] was above 3 µM.

Consider `CC1CCN(C[C@@H](NC(=O)[C@H]2Cc3ccc(O)cc3CN2)C2CC2)CC1` [Compound 35, (3R)-N-[(1S)-1-Cyclopropyl-2-(4-methylpiperidine-1-yl)ethyl]-7-hydroxy-1,2,3,4-tetrahydroisoquinoline-3-carboxamide Dihydrochloride], for which, in assay [1], the “fold loss in κ opioid receptor antagonist potency relative to 12” value was found to be 15 and the δ/κ is listed as above 538. This compound registered a Kb in assay [2] above 3 µM.

As to `CC1CC(C)CN(C[C@@H](NC(=O)[C@H]2Cc3ccc(O)cc3CN2)C(C)C)C1` (stereo partly drawn) [Compound 17, (3R)-N-{(1S)-1-[(3,5-Dimethylpiperidin-1-yl)methyl]-2-methylpropyl}−7-hydroxy-1,2,3,4 tetrahydroisoquinoline-3-carboxamide Dihydrochloride], the δ/κ in assay [1] was above 867. In assay [2], this compound had a Kb above 3 µM.

With `CC(C)[C@@H](CN1CCCCC1=O)NC(=O)[C@H]1Cc2ccc(O)cc2CN1` [Compound 11, (3R)-7-Hydroxy-N-{(1S)-2-methyl-1-[(2-oxopiperidin-1-yl)-methyl]propyl}−1,2,3,4-tetrahydroisoquinoline-3-carboxamide Hydrochloride], the δ/κ in assay [1] was above 49.

Take `Cc1ccc2c(c1)CN(C)[C@@H](C(=O)N[C@H](CN1CCC(C)CC1)C(C)C)C2` [Compound 47, (3R)-7-Hydroxy-2-methyl-N-{(1S)-2-methyl-1-[(4-methylpiperidin-1yl)methy]propyl}−1,2,3,4-tetrahydroisoquinoline-3-carboxamide Dihydrochloride]: the Kb in assay [1] was 0.0367 ± 0.0056 µM; in assay [3], 0.752 ± 0.14 µM; in assay [2] it was above 3 µM. Also, the δ/κ in assay [1] is listed as above 82.

Turning to `CC(C)[C@@H](CN1CCOCC1)NC(=O)[C@H]1Cc2ccc(O)cc2CN1` [Compound 6, (3R)-7-Hydroxy-N-[(1S)-2-methyl-1-(morpholin-4-ylmethyl)-propyl]-1,2,3,4-tetrahydroisoquinoline-3-carboxamide Dihydrochloride], the Kb in assay [3] was above 3 µM.

For `CC1CCN(C[C@@H](NC(=O)[C@@H]2CCc3cc(O)ccc3C2)C(C)C)CC1` [Compound 38, 6-Hydroxy-N-{(1S)-2-methyl-1-[(4-methylpipieridine-1-yl)-methyl]propyl}−1,2,3,4-tetrahydronaphthalene-2-carboxamide Hydrochloride], the Kb in assay [1] is 0.0111 ± 0.0029 µM; in assay [3], 0.153 ± 0.037 µM; in assay [2], above 3 µM. Besides, the δ/κ in assay [1] was above 270.

For the compound `CC1CCN(C[C@@H](NC(=O)[C@H]2Cc3ccc(F)cc3CN2)C(C)C)CC1` [Compound 45, (3R)-7-Fluoro-N-{(1S)-2-methyl-1-[(4-methylpiperidin-1-yl)-methyl]propyl}−1,2,3,4-tetrahydroisoquinoline-3-carboxamide Dihydrochloride], in assay [1], the “fold loss in κ opioid receptor antagonist potency relative to 12” value was found to be 492, the δ/κ is above 17 and the μ/κ is given as above 17. In assay [3], this compound had a Kb above 3 µM. The Kb in assay [2] is above 3 µM.

For the compound `CC(C)[C@@H](CN1C2CCC1CC2)NC(=O)[C@H]1Cc2ccc(O)cc2CN1` [Compound 5, (3R)-N-[(1S)-1-(7-Azabicyclo[2.2.1]hept-7-ylmethyl)-2-methylpropyl]-7-hydroxy-1,2,3,4-tetrahydroisoquinoline-3-carboxamide Dihydrochloride], in assay [1], the Kb is 0.00253 ± 0.0006 µM, the “fold more potent at the κ opioid receptor than 1” value turned out to be 2.7 and the δ/κ is given as above 1186. For the same compound, in assay [2], the Kb is above 3 µM.

For `CC(C)[C@@H](CN1CCCC1)NC(=O)[C@H]1Cc2ccc(O)cc2CN1` [Compound 4, (3R)-7-Hydroxy-N-[(1S)-2-methyl-1-(pyrrolidin-1-ylmethyl)-propyl]-1,2,3,4-tetrahydroisoquinoline-3-carboxamide Dihydrochloride], in assay [1], the δ/κ is above 62. The compound further displayed a Kb in assay [2] above 3 µM.

`CC1CCN(C[C@@H](NC[C@H]2Cc3ccc(O)cc3CN2)C(C)C)CC1` [Compound 39, (3R)-3-[({(1S)-2-Methyl-1-[(4-methylpiperidin-1-yl)methyl]-propyl}amino)methyl]-1,2,3,4-tetrahydroisoquinolin-7-ol Trihydro-chloride]: the δ/κ in assay [1] is above 174. Besides, the Kb in assay [2] is above 3 µM.

Consider `CC1CCCN(C[C@@H](NC(=O)[C@H]2Cc3ccc(O)cc3CN2)C(C)C)C1` (mixture of isomers) [Compound 13, (3R)-7-Hydroxy-N-{(1S)-2-methyl-1-[((3RS)-3-methylpiperidin-1-yl)methyl]propyl}−1,2,3,4-tetrahydroisoquinoline-3-carboxamide Dihydrochloride], for which, in assay [1], the δ/κ is given as above 192. In assay [2], this compound gave a Kb above 3 µM.

In the case of `CC(C)[C@@H](CN1CC=CCC1)NC(=O)[C@H]1Cc2ccc(O)cc2CN1` [Compound 27, (3R)-N-[(1S)-1-(3,6-Dihydropyridin-1(2H)-ylmethyl)-2-methylpropyl]-7-hydroxy-1,2,3,4-tetrahydroisoquinoline-3-carboxamide Dihydrochloride], in assay [1], the “fold more potent at the κ opioid receptor than 1” value is 6.4 and the δ/κ is recorded as above 2804. The compound further had a Kb in assay [2] above 3 µM.

Turning to `CC1CCN(C[C@@H](NC(=O)[C@H]2Cc3ccc(C(N)=O)cc3CN2)C(C)C)CC1` [Compound 41, (3R)-N3-{(1S)-2-Methyl-1-[(4-methylpiperidin-1-yl)methyl]-propyl}−1,2,3,4-tetrahydroisoquinoline-3,7-dicarboxamide Dihydrochloride], in assay [1], the “fold loss in κ opioid receptor antagonist potency relative to 12” value is 3.7 and the δ/κ is on record as above 2190. For the same compound, the Kb in assay [2] is above 3 µM.

For the compound `CC1CCN(C[C@@H](NC(=O)c2ccc3cc(O)ccc3c2)C(C)C)CC1` [Compound 37, 6-Hydroxy-N-{(1S)-2-methyl-1-[(4-methylpipieridine-1-yl)-methyl]propyl}naphthalene-2-carboxamide Hydrochloride], the δ/κ in assay [1] is recorded as above 146. Also, the Kb in assay [2] was above 3 µM.

In turn, `CC(C)CN(CC(C)C)C[C@@H](NC(=O)[C@H]1Cc2ccc(O)cc2CN1)C(C)C` [Compound 10, (3R)-N-{(1S)-1-{[Bis(2-methylpropyl)amino]methyl}−2-methyl-propyl]-7-hydroxy-1,2,3,4-tetrahydroisoquinoline-3-carboxamide Dihydrochloride] yielded a Kb in assay [3] above 3 µM.

Consider `COc1ccc2c(c1)CN[C@@H](C(=O)N[C@H](CN1CCC(C)CC1)C(C)C)C2` [Compound 43, (3R)-7-Methoxy-N-{(1S)-2-methyl-1-[(4-methylpiperidin-1-yl)-methyl]propyl}−1,2,3,4-tetrahydroisoquinoline-3-carboxamide Dihydrochloride], for which, in assay [1], the “fold loss in κ opioid receptor antagonist potency relative to 12” value was 69 and the δ/κ is listed as above 117. For the same compound, the Kb in assay [2] is above 3 µM.

With `CC(C)[C@@H](CN1CC[C@H](C)[C@@H](C)C1)NC(=O)[C@H]1Cc2ccc(O)cc2CN1` (mixture of isomers) [Compound 16, (3R)-N-[(1S)-1-{[(3RS,4SR)-3,4-Dimethylpiperidin-1-yl]methyl}−2-methylpropyl]-7-hydroxy-1,2,3,4-tetrahydroisoquinoline-3-carboxamide Dihydrochloride], the Kb in assay [3] came to 0.0509 ± 0.0077 µM.

With `CC1=CCN(C[C@@H](NC(=O)[C@H]2Cc3ccc(O)cc3CN2)C(C)C)CC1` [Compound 28, (3R)-7-Hydroxy-N-{(1S)-2-methyl-1-[(4-methyl-3,6-dihydropyridin-1(2H)-yl)methyl]propyl}−1,2,3,4-tetrahydroisoquinoline-3-carboxamide Dihydrochloride], in assay [1], the “fold loss in κ opioid receptor antagonist potency relative to 12” value was 2.4 and the δ/κ is above 3410. For the same compound, in assay [3], the “fold increase in μ antagonist potency relative to 12” value was 20. The compound also gave a Kb in assay [2] above 3 µM.

In the case of `CCCN(CCC)C[C@@H](NC(=O)[C@H]1Cc2ccc(O)cc2CN1)C(C)C` [Compound 9, (3R)-N-{(1S)-1-[(Dipropylamino)methyl]-2-methylpropyl}−7-hydroxy-1,2,3,4-tetrahydroisoquinoline-3-carboxamide Dihydrochloride], the δ/κ in assay [1] is above 207. This compound yielded a Kb in assay [2] above 3 µM.

Take `CC(C)[C@@H](CN1CCCCCC1)NC(=O)[C@H]1Cc2ccc(O)cc2CN1` [Compound 3, (3R)-N-[(1S)-1-(Azepan-1-ylmethyl)-2-methylpropyl]-7-hydroxy-1,2,3,4-tetrahydroisoquinoline-3-carboxamide Dihydrochloride]: in assay [1], the “fold less potent at the κ opioid receptor than 1” value is 2.5 and the δ/κ is listed as above 177. For the same compound, the Kb in assay [2] was above 3 µM.
